We go through two compounds from patent US20030139609A1, “Aziridinyl quinone antitumor agents based on indoles and cyclopent[b]indoles” (priority 2001, published 2003).

The subject of this series is B16 melanoma. The class given is in vivo. To be noted: 2, 3 or 5 mg/kg/day. The text has this: Shown in Tables 6 and 7 are B16 melanoma syngraft assays {Griswold, D. P., Consideration of the Subcutaneously Implanted B16 Melanoma as a Screening Model for Potential Anticancer Agents, Cancer Chemother Reports, 1972, 3, 315-324} of some members of Series 1-9, as well as related compounds previously reported from this laboratory. {Xing, C. G., Wu, P., Skibo, E. B., and Dorr, R. T., Design of cancer-specific antitumor agents based on aziridlinylcyclopent[b]indoloquinones, J. Med. Chem., 2000, 43, 457-466}. Each agent was evaluated at three doses in C57/bl mice: 2, 3 or 5 mg/kg/day, on days 1, 5, and 9 after subcutaneous tumor implantation of 10^5 cells in the front flank on day 0. “Toxic” means that there was early lethality, or ≧50% lethality prior to any deaths in the control group. The treated over control values (T/C) were measured at day 25 of the study. A T/C value <40% is considered active.
In vivo Evaluation. The B-16 melanoma in C57/bl mice syngraft model was employed to determine in vivo activity. {Griswold, D. P., Consideration of the Subcutaneously Implanted B16 Melanoma as a Screening Model for Potential Anticancer Agents, Cancer Chemother Reports, 1972, 3, 315-324}. Each agent was evaluated at three doses: 2, 3 or 5 mg/kg/day, on days 1, 5, and 9 after subcutaneous tumor implantation of 10^5 cells in the front flank on day 0. “Toxic” means that there was early lethality, or ≧50% lethality prior to any deaths in the control group. The treated over control values (T/C) were measured at day 25 of the study. A T/C value<40% is considered active. NA means that the compound was not active. The control was obtained with drug-free animals.

Take `CC(=O)OC1CCc2c1[nH]c1c2C(=O)C=C(N2CC2)C1=O` (stereo not drawn) [Compound 3b, 3-Acetoxy-6-aziridinyl-1,2,3,4-tetrahydrocyclopent[b]indole-5,8-dione]: the “in vivo toxicity (in words)” value was “toxic”.

Turning to `CC1=C(N2CC2)C(=O)c2c([nH]c(C)c2C)C1=O` [reference compound], the “in vivo antitumor activity (in words)” value is “substantial antitumor activity” and the “in vivo toxicity (in words)” value is reported as “toxicity only seen at the highest dose”.
